Consider one molecule from patent EP0072352B1, “Benzazepin-2-ones, process for their preparation, pharmaceutical preparations containing these compounds and the compounds for therapeutical use” (CIBA-GEIGY AG, priority 1981, dated 1983).

The chains behind the UniProt entries cited, without tags or fusion partners. Residues count along the entry.
UniProt P12822, 34-1310 limits assumed: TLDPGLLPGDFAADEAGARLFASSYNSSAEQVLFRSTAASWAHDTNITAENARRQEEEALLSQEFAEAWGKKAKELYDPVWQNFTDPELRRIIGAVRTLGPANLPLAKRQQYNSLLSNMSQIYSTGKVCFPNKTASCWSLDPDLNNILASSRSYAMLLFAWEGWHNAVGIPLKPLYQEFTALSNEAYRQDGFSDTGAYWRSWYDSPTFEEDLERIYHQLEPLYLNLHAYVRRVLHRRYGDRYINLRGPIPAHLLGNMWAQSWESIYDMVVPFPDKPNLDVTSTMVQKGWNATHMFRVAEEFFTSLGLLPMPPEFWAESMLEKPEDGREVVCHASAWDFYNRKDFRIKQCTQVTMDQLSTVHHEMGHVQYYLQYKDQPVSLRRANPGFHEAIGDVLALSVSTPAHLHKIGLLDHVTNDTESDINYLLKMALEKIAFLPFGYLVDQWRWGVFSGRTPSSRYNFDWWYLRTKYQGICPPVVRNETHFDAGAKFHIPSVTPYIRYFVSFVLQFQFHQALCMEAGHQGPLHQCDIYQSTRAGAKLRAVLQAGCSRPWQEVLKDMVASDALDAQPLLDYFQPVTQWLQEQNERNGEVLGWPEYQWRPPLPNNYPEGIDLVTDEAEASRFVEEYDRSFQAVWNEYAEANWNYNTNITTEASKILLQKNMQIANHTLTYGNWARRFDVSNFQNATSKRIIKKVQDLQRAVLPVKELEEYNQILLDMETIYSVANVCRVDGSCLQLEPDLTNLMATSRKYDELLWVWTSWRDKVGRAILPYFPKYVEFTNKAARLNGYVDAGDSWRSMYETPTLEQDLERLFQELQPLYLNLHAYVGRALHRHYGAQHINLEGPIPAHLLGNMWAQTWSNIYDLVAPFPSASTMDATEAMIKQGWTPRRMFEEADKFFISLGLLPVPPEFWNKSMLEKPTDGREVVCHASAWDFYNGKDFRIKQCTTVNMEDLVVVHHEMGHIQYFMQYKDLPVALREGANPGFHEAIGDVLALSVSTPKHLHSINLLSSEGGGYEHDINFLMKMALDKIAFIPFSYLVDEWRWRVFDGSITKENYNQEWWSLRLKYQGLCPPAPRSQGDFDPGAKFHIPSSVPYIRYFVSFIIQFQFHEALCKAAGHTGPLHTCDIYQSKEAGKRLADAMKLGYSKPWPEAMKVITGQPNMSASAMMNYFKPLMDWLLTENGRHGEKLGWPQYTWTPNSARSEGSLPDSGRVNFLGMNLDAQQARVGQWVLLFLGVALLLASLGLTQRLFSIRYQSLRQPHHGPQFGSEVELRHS

Test [1] addresses Angiotensin-umwandelnde Enzym (ACE) (Oryctolagus cuniculus, UniProt P12822). Put plainly: In vitro ACE inhibition (ACEI), rabbit lung tissue preparation, hippuryl-histidyl-leucine substrate, method of Cheung and Cushman. The note with it: read-out: In vitro ACEI IC50, 30 min incubation at 37°, tested form: maleate.
Test [2] deals with durch Angiotensin I (AI) hervorgerufene Blutdrucksteigerung. Put plainly: Inhibition of the angiotensin I (AI) induced blood pressure rise after intravenous administration of the test compound. The note with it: i.v. Dosis 1.0 mg/kg; rat; mean inhibition within 30 min after administration; tested form: maleate. An excerpt: Die Verbindungen der Erfindung zeigen nach intravenöser oder oraler Verabreichung eine hemmende Wirkung gegen die durch Angiotensin I hervorgerufene Blutdrucksteigerung auch an normotensiven Ratten. Das Angiotensin 1 wird durch das genannte Umwandlungsenzym zu der stark blutdrucksteigernden Substanz Angiotensin II hydrolysiert. Die Hemmung des genannten Enzyms blockiert die Bildung von Angiotensin II aus Angiotensin I. In dieser Weise wird die durch Angiotensin I provozierte Blutdrucksteigerung abgeschwächt.
Der entsprechende in-vivo-Test mit den intravenös verabreichten Verbindungen wird mit männlichen normotensiven Ratten, welche mit dem Natriumsalz der 5-Äthyl-5-(1-methylpropyl)-2-thiobarbitursäure narkotisiert sind, durchgeführt. Eine femorale Arterie und eine Wadenvene werden mit je einer Hohlnadel für die direkte Messung des Blutdrucks und für die intravenöse Verabreichung des Angiotensins I und einer erfindungsgemäßen Verbindung versehen. Nach der Stabilisierung des basalen Blutdrucks wird die Druckänderung nach drei, in 5-minütigen Intervallen, i. v. durchgeführten Reizungen mit 333 ng/kg Angiotensin I bestimmt. Solche Druckänderungen werden wieder nach 5,10,15, 30 und 60 Minuten nach intravenöser Verabreichung der zu prüfenden Verbindung bestimmt. Die letztgenannten Druckänderungen werden mit den Anfangswerten verglichen. […]

Consider `CCOC(=O)CN1C(=O)[C@@H](N[C@@H](CCc2ccccc2)C(=O)OCC)CCc2ccccc21` (relative stereo), for which the IC50 (usually the concentration at which inhibition is half-maximal) in test [1] was 10 µM. Moreover, the “% AI Hemmung” value in test [2] is 80%.
